Assay results taken from PubChem BioAssay AID463210 (The Scripps Research Institute Molecular Screening Center, 2010).
Only a part is listed here, and it is no random draw. The source made the active and inactive calls.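 Rule for the calls: active = percent activation above the screen-wide mean plus 3 SD (cut at about 25% in these data); inactive = the rest.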

Sequences of proteins named here, by UniProt entry; tags and fusion partners are left off.
UniProt P55210, whole entry D23A/D198A/D206A: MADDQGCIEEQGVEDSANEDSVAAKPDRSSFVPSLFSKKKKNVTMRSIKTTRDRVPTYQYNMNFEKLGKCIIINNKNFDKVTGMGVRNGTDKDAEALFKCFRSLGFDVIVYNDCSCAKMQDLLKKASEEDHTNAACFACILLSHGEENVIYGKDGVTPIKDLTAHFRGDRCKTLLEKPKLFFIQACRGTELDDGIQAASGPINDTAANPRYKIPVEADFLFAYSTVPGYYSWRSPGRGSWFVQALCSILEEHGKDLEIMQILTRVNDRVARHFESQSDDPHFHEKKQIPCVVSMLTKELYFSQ

These molecules were tested against Caspase-7 (Homo sapiens) (UniProt P55210) (assay: procaspase-7 activators, primary screen, counter-screen for procaspase-3 activator project, biochemical, absorbance, HTS, human (AID 463210)). Conditions: recombinant procaspase-7, Ac-DEVD-pNA absorbance 405 nm; at 8.5 µM; active compounds read high; D23A/D198A/D206A triple mutant, cannot self-cleave; scale: DMSO 0, 5 µM enzyme 100.
How it was run: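 Assay system – Uncleavable procaspase-7 mutant enzyme · Quantity – 2 µM procaspase-7 mutant as dispensed · Times – 1 h preincubation, 2 h reaction · Dosing – single nominal 8.5 µM compound dose, 0.8% DMSO final · Buffer or medium – Zinc-free 50 mM HEPES buffer, pH 7.4, with NaCl and Triton X-100 · Detection – Epi-absorbance of released pNA at 405 nm, two timepoints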

SMILES | activation
COc1ccccc1OP(C)(=O)Nc1ccccc1 (configuration not stated) | inactive: 10.5%
CN(C)CCOC(=O)C(O)(c1ccccc1)C1CCCC1 (configuration not stated) | inactive: 6.98%
